Results: PubChem BioAssay AID504634 (The Scripps Research Institute Molecular Screening Center, 2011)
The list shows a part of the results, in another mix than the full data. The source made the active and inactive calls. Rule as the data show it: active = inhibition mostly above about 23% (no sharp cut-off); inactive = mostly below about 18%.

By UniProt entry, the sequences of proteins in these tests, tags left out.
UniProt P47898, whole entry, looked up: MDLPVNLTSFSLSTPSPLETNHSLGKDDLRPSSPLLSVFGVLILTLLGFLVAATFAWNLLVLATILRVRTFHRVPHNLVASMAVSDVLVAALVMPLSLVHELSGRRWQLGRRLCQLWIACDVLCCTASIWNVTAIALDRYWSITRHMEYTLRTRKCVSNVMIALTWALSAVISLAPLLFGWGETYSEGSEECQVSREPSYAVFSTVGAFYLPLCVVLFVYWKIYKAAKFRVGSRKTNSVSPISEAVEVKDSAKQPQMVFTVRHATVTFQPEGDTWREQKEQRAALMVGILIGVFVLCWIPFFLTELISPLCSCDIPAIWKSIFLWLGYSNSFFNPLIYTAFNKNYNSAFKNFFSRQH

Target: 5-hydroxytryptamine receptor 5A (Homo sapiens) (UniProt P47898)
Test: HTR5A inverse agonists in luminescence cell assay, primary screen, counter-screen for OPRM1-OPRD1 heterodimer inverse agonist project, full-deck HTS (AID 504634);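 also: 0% = cells with DMSO and 100% = no-cell wells with DMSO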
Settings: HTR5A cell line, inverse agonism, at 9.3 µM, hits give high values

Row | Compound | inhibition
1 | CC(C)(C)C(=O)NC(Sc1ccccc1)C(Cl)(Cl)Cl (centres undefined) | inactive: 5.61%
2 | O=C(Cn1c(CO)nc2ccccc21)Nc1ccccc1Cl | inactive: -13%
3 | COc1ccc(Cl)cc1NC(=O)CN(C)C(=O)Cn1cnc2c1c(=O)n(C)c(=O)n2C | inactive: -10.4%
4 | CSc1nc2ccccc2n1CC(=O)Nc1c(C)n(C)n(-c2ccccc2)c1=O | inactive: 12.4%
5 | Cc1ccc2c(c1)C1C[N+](C)(CC(=O)c3ccccc3)CCC1N2C(=O)c1ccccc1Cl (centres undefined) | inactive: -23.5%
6 | CC(/C=C/c1ccccc1)=N/NC(=O)CCC(=O)Nc1ccccc1C | inactive: -27.7%
7 | COc1cccc(C(=O)CSc2nc3ccccc3n2CC(=O)N2CCOCC2)c1 | inactive: -13.5%
8 | O=C(Cn1c(-c2cncs2)nc2ccccc21)NCCc1ccccc1 | inactive: -13.7%
9 | CCc1cc(O)c([N+](=O)[O-])c(C)c1[N+](=O)[O-] | inactive: 3.31%
10 | CCOC(=O)c1ccc(NC(=O)Cn2c(-c3nonc3N)nc3ccccc32)cc1 | inactive: -75.2%
11 | COCCN1CCn2c(nc3cc(NC(C)=O)ccc32)C1 | inactive: 8.69%
12 | COCCNC(=O)Cn1cnc2c1c(=O)n(C)c(=O)n2C | inactive: 9.53%
13 | CCOc1ccc(C2=NCC(CBr)S2)cc1 (centres undefined) | inactive: 4.88%
14 | O=P1(Nc2nc3ccc(Cl)cc3s2)COc2ccccc2O1 (centres undefined) | inactive: -8.32%
15 | O=C(Cn1cnc2c(OCc3ccccc3)ncnc21)NCc1ccccc1 | inactive: 11.1%
16 | CCn1c(=O)c2c(nc3n2CCN3c2ccccc2)n(C)c1=O | inactive: -1.48%
17 | CC1CN(C(=O)Cn2cnc3c2c(=O)n(C)c(=O)n3C)CC(C)O1 (centres undefined) | inactive: 8.65%
18 | C[C@H](NC(=O)N1CCn2c1nc1ccccc12)C(=O)NCc1ccccc1 | inactive: 10.5%
19 | COc1cccc(CNC(=O)[C@H](CCSC)NC(=O)N2CCn3c2nc2ccccc23)c1 | inactive: -18.7%
20 | Cc1nc2ccccc2n1CC(=O)N1CC(=O)Nc2ccccc21 | inactive: -40.5%
21 | COC(=O)c1ccc(CNC(=O)Cn2cnc3c(NCc4ccccc4)ncnc32)cc1 | inactive: 2.26%
22 | Cc1ccc2c(c1)C1CN(C)CCC1N2C(=O)COc1ccc(N(C)C(=O)c2ccccc2)cc1 (centres undefined) | inactive: 3.25%
23 | N=c1n(CCCOc2ccccc2Cl)c2ccccc2n1CC(N)=O | inactive: -12.2%

Row | Compound | inhibition
24 | N#Cc1cccc(NC(=O)Cn2c3[n+](c4ccc(C(F)(F)F)cc42)CCCCC3)c1 | inactive: -12.7%
25 | O=C(Cn1c(NCCO)nc2ccccc21)Nc1ccc2c(c1)OCCCO2 | inactive: 2.04%
26 | CC(C)CCNC(=O)CC1C(=O)N(Cc2ccccc2)C(C)c2nc3ccccc3n21 (centres undefined) | inactive: 4.4%
27 | CC(C)(C)NC(=O)Cn1c(SCC(N)=O)nc2ccccc21 | inactive: -18.2%
28 | O=C(CCNC(=O)N1CCn2c1nc1ccccc12)NCc1ccc(Cl)cc1 | inactive: -9.58%
29 | Cc1cc(NC(=O)CSc2nc3ccccc3n2CC(=O)N2CCC(C)CC2)no1 | inactive: -0.31%
30 | CC(=O)Nc1ccc(Oc2c([N+](=O)[O-])cc([N+](=O)[O-])cc2[N+](=O)[O-])cc1 | inactive: 27.1%
31 | Cc1nc2cc(C(F)(F)F)ccc2n1C1CCN(Cc2nnnn2CCc2ccccc2)CC1 | inactive: -19.2%
32 | Cn1c(=O)c2c(ncn2CC(=O)Nc2cc(S(=O)(=O)N3CCCCC3)ccc2Cl)n(C)c1=O | inactive: -14.6%
33 | CN1C(=O)CC(n2c(CO)nc3ccccc32)C1=O (centres undefined) | inactive: 20.6%
34 | CCOC(=O)c1ccc(NC(=O)C2CC(=O)Nc3nc4ccccc4n32)cc1 (centres undefined) | inactive: -9.21%
35 | CCC(C(=O)NC1CCCC1)n1c(SCc2cccc(C)c2)nc2ccncc21 (centres undefined) | inactive: -18.2%
36 | COc1ccc2c(c1)C1(Nc3ccccc3-c3nc4ccccc4n31)C(=O)N2 (centres undefined) | inactive: -15.2%
37 | CC(=O)Nc1ccc([As](=O)(O)O)c(O)c1 | inactive: 2.42%
38 | O=S(=O)(c1ccc(F)cc1)N1CCn2c(nc3ccccc32)C1 | inactive: -16.8%
39 | CSCC[C@H](NC(=O)N1CCn2c1nc1ccccc12)C(=O)NC1CCCCC1 | inactive: -1.16%
40 | CC1=NNC(=O)C1CCC(=O)N/N=C/C=C/c1ccccc1 (centres undefined) | inactive: -9.31%
41 | COCCN1CCn2c(nc3cc(NC(=O)Cn4nc(C)c5ccccc5c4=O)ccc32)C1 | inactive: 2.84%
42 | COc1ccc(CCNC(=O)[C@H](C)NC(=O)N2CCn3c2nc2ccccc23)cc1OC | inactive: 0.34%
43 | CC(C)[C@H](NC(=O)N1CCn2c1nc1ccccc12)C(=O)NCc1ccc(F)cc1 | inactive: -0.25%
44 | COCC(=O)N(C)[C@H]1C[C@H]2c3cc(Oc4ccccc4C)ccc3CCN2C(=O)[C@H]1[C@H](C)O | inactive: 0.94%
45 | COc1ccccc1OCC(O)Cn1c(=N)n(CCN2CCCCC2)c2ccccc21 (centres undefined) | inactive: -22.4%
46 | CC(C)C[C@H](NC(=O)N1CCn2c1nc1ccccc12)C(=O)NCc1ccccc1 | inactive: -7.44%

Row | Compound | inhibition
47 | Fc1ccc2c(c1)nnn2C1CCN(Cc2nnnn2CCc2ccccc2)CC1 | inactive: -23.6%
48 | O=C(Cn1cnc2ccccc21)Nc1ccc(C(=O)O)cc1 | inactive: -24.5%
49 | O=C(C1COc2ccccc2O1)N1CCn2c(nc3ccccc32)C1 (centres undefined) | inactive: -3.64%
50 | C[C@@H]1C=CCP(=O)(Oc2ccccc2)O1 (some centres undefined) | inactive: 8.37%
51 | C[C@H](O)[C@@H]1C(=O)N2CCc3ccc(-c4ccccc4)cc3[C@@H]2C[C@@H]1N(C)C(=O)c1ccc(C#N)cc1 | inactive: -3.47%
52 | O=C(CCNC(=O)N1CCn2c1nc1ccccc12)NCc1ccccc1Cl | inactive: -1.94%
53 | CN(C)CCn1c(N)nc2ccccc21 | inactive: -22.5%
54 | CN(C)C(=O)CSc1nc2ccccc2n1CC(=O)N1CCN(c2ccccc2)CC1 | inactive: 3.05%
55 | CCC(=O)Nc1nc2ccccc2n1CCN(C)C | inactive: -22.9%
56 | C[C@H]1OP(=O)(Oc2ccccc2)C[C@@H]2O[C@@H]21 (some centres undefined) | inactive: 21.3%
57 | Cc1ccc2c(c1)C1CN(C)CCC1N2Sc1ccccc1[N+](=O)[O-] (centres undefined) | inactive: 7.07%
58 | Cc1ccc2c(c1)C1CN(C)CCC1N2C(=O)Nc1cccc(Cl)c1 (centres undefined) | inactive: -24.7%
59 | CCOc1ccc(S(=O)(=O)N(C)c2ccc(OCC(=O)N3c4ccc(C)cc4C4CN(C)CCC43)cc2)cc1 (centres undefined) | inactive: -4.66%
60 | Cc1ccccc1Oc1ccc2c(c1)[C@@H]1C[C@H](N(C)C(=O)Nc3cc(Cl)cc(Cl)c3)[C@H]([C@H](C)O)C(=O)N1CC2 | inactive: -25.5%
61 | CC(C)(C)NC(=O)Cn1c(SCC(=O)Nc2nccs2)nc2ccccc21 | inactive: -0.9%
62 | Cc1ccccc1CN(C)C(=O)COC(=O)C(O)(c1ccccc1)c1ccccc1 | inactive: -29.8%
63 | O=C(CCCCCNC(=O)N1CCn2c1nc1ccccc12)N[C@H](C(=O)O)c1ccccc1 | inactive: -17.1%
64 | Cc1ccc2c(c1)C1CN(C)CCC1N2C(=O)COc1ccc(N(C)S(=O)(=O)c2cccs2)cc1 (centres undefined) | inactive: -1.25%
65 | COC(=O)c1ccccc1NC(=O)Cn1c(-c2nonc2N)nc2ccccc21 | inactive: -13.7%
66 | Cn1c(=O)c2c(ncn2CC(=O)N/N=C/C(Cl)=C/c2ccccc2)n(C)c1=O | inactive: 30.9%
67 | O=C(Cn1cnc2ccccc21)N/N=C/C(Br)=C/c1ccccc1 | inactive: -8.23%
68 | COC(=O)C1(C)COP(=O)(NCc2ccccc2)OC1 (centres undefined) | inactive: 6.23%
69 | CC(NC(=O)CCCCCNC(=O)N1CCn2c1nc1ccccc12)c1ccccc1 (centres undefined) | inactive: 5.03%

Row | Compound | inhibition
70 | N#C/C(=C\c1ccc(N(CCBr)CCBr)cc1)C(N)=O | inactive: -24.3%
71 | O=C(Cn1c(SCC(=O)N2CCCc3ccccc32)nc2ccccc21)N1CCCC1 | inactive: 6.72%
72 | Cc1ccc2c(c1)C1CN(C)CCC1N2S(=O)(=O)c1cccc(F)c1 (centres undefined) | inactive: -5.54%
73 | CC(=O)c1ccc(N2CC2c2ccncc2)cc1 (centres undefined) | inactive: 11.5%
74 | CC(O)CNc1nc2ccccc2n1CC(=O)NCCc1ccc(Cl)cc1 (centres undefined) | inactive: -6.36%
75 | O=C(Nc1nc2ccccc2n1CCN1CCCCC1)C1CCCCC1 | inactive: 13.6%
76 | CC1Cc2ccccc2N1C(=O)Cn1cnc2c1c(=O)n(C)c(=O)n2C (centres undefined) | inactive: 4.27%
77 | CC(NC(=O)CCNC(=O)N1CCn2c1nc1ccccc12)c1ccccc1 (centres undefined) | inactive: -12.8%
78 | Cc1ccc(-c2csc(NCCn3c(C(F)(F)F)nc4ccccc43)n2)cc1 | inactive: -8.35%
79 | Cn1c(=O)c2c(nc(CN3CCN(C(=O)c4ccco4)CC3)n2CC(N)=O)n(C)c1=O | inactive: -10.9%
80 | COc1ccccc1C(=O)Nc1ccc2c(c1)nc1n2CCN(C2CCCCC2)C1 | inactive: -23%
81 | O=C(Cn1cnc2c(NCc3ccccc3)ncnc21)N1CCN(c2ccccn2)CC1 | inactive: 5.05%
82 | O=C(Nc1nc2ccccc2n1CCN1CCCCC1)c1ccco1 | inactive: -6.01%
83 | O=C(Cn1c(-c2cscn2)nc2ccccc21)Nc1ccccc1F | inactive: -7.75%
84 | CCC(=O)Nc1cccc(C(=O)/C=C/c2cc(Br)ccc2OC)c1 | inactive: -23.1%
85 | O=S(=O)(c1ccccc1)c1nnn2c1nc(NC1CCN(Cc3ccccc3)CC1)c1ccccc12 | inactive: -8.27%
86 | CCCS(=O)(=O)N1CCn2c(nc3ccccc32)C1 | inactive: -2.62%
87 | CC(=O)NC(C)c1nc2ccccc2n1CC(=O)N1C(C)CCCC1C (centres undefined) | inactive: -9.73%
88 | Cc1ccc(CN2C(=O)c3ccccc3NC23CCN(Cc2ccccc2)CC3)cc1 | inactive: 11.7%
89 | CC(C)NC(=O)Cn1c(SCC(=O)N2c3ccccc3CC2C)nc2ccccc21 (centres undefined) | inactive: -2.33%
